Ki data for six molecules are collected here from patent US20210163536A1 (IPSEN PHARMA S A S, published 2021).

Amino acid sequences for entries named in this document (tags omitted). A change or cut given only in a name is not applied to a line headed by its entry.
UniProt P32245, whole entry: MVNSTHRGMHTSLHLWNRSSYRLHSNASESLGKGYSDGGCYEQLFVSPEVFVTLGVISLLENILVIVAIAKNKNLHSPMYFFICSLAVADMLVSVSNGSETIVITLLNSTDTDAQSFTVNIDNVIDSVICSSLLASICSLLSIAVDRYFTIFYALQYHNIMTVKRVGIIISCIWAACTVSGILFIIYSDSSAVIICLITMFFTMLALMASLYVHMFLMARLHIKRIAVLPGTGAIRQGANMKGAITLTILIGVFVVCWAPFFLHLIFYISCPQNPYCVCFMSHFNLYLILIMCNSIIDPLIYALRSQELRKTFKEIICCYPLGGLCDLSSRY
UniProt P41968: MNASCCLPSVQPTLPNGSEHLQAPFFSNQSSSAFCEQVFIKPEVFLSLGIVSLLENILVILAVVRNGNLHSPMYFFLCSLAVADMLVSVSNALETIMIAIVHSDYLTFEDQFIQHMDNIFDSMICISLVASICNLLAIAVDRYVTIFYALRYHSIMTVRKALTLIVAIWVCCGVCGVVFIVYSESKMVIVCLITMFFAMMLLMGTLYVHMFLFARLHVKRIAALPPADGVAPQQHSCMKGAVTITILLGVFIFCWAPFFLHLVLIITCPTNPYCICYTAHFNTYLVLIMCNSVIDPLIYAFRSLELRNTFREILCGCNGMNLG
UniProt P33032: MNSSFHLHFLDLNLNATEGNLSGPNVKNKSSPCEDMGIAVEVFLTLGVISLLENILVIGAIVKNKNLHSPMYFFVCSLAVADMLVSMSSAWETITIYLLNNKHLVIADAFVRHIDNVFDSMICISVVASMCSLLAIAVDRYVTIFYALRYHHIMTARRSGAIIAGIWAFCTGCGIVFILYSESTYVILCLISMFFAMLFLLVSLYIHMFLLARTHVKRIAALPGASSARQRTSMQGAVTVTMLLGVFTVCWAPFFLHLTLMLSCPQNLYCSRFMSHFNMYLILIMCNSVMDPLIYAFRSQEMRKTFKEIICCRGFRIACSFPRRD
UniProt Q01726: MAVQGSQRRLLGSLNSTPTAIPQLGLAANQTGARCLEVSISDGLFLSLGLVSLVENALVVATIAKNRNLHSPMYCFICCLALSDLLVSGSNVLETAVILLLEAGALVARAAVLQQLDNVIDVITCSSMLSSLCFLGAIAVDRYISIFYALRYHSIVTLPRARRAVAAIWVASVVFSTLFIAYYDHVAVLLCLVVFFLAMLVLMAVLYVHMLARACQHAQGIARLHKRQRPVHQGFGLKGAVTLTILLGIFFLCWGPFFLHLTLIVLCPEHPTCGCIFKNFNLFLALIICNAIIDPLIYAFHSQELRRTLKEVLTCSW

Holding throughout (assay): competition with [125I]-NDP-alpha-MSH, CHO-K1 cell membranes
Assay [1] addresses T1, human melanocortin-4 receptor (human, UniProt P32245 1-332).
T1 construct: whole, on cells; Ki assays used cellular membranes of the CHO-K1 cells; cAMP assays used the whole cells; also called hMC4; hMC-R receptor subtype 4
How it is done: (§1) Competitive inhibition of [¹²⁵I](Tyr²)-(Nle⁴-D-Phe⁷)α-MSH ([¹²⁵I]-NDP-α-MSH, Amersham Biosciences®) binding was carried out in polypropylene 96 well plates. […] Bound [¹²⁵I]-NDP-α-MSH ligand was separated from free [¹²⁵I]-NDP-α-MSH by filtration through GF/C glass fiber filter plates (Unifilter®; Packard) presoaked with 0.1% (w/v) polyethylenimine (PEI), using a Packard Filtermate® harvester. Filters were washed three times with 50 mM Tris-HCl at pH 7.4 at a temperature of approximately 0-4° C. and then assayed for radioactivity using a Packard Topcount® scintillation counter. Binding data were analyzed by computer-assisted non-linear regression analysis (XL fit; IDBS).

Assay [2] addresses T2, human melanocortin-3 receptor (human, UniProt P41968 1-323).
T2 construct: whole, on cells; Ki assays used cellular membranes of the CHO-K1 cells; cAMP assays used the whole cells; also called hMC3; hMC-R receptor subtype 3
How it is done:
as §1

Assay [3] addresses T3, human melanocortin-5 receptor (human, UniProt P33032 1-325).
T3 construct: whole, on cells; Ki assays used cellular membranes of the CHO-K1 cells; cAMP assays used the whole cells; also called hMC5; hMC-R receptor subtype 5
The protocol: as §1

Assay [4] has as its target T4, human melanocortin-1 receptor (human, UniProt Q01726 1-317).
T4 construct: whole, on cells; Ki assays used cellular membranes of the CHO-K1 cells; cAMP assays used the whole cells; also called hMC1; hMC-R receptor subtype 1
How it is done:
as §1

For orientation: Ki means a dissociation constant, usually derived from enzyme kinetics or from competition with a known ligand. A lower Ki goes with tighter binding.

B1: Hydantoin(C(O)-(Cha-Nle))-cyclo(Cys-D-Ala-His-D-Phe-Arg-Trp-Cys)-NH2 (peptide)
peptide: CXHXRWC
modifications: hydantoin ring from Cha 1, C(O) and the amino group of Nle 2; Cha 1; Nle 2; D-Ala 4; D-Phe 6; disulfide Cys 3-Cys 9 (cyclo); C-terminal amide
With B1, the Ki in assay [1] was determined as 137 nM; in assay [2] it was 870 nM; in assay [3], 3560 nM; in assay [4], 40.8 nM.

B2: Hydantoin(C(O)-(A6c-Nle))-cyclo(Cys-D-Ala-His-D-Phe-Arg-Trp-Cys)-NH2 (peptide)
peptide: CXHXRWC
modifications: hydantoin ring from A6c 1, C(O) and the amino group of Nle 2; A6c 1; Nle 2; D-Ala 4; D-Phe 6; disulfide Cys 3-Cys 9 (cyclo); C-terminal amide
Turning to B2, the inhibitory constant (Ki) in assay [1] turned out to be 19.6 nM; in assay [2] it was 224 nM; in assay [3], 2500 nM; in assay [4], 31.6 nM.

B3: Hydantoin(C(O)-(Val-Nle))-cyclo(Cys-D-Ala-His-D-Phe-Arg-Trp-Cys)-NH2 (peptide)
peptide: CXHXRWC
modifications: not fully specified; hydantoin ring from Val 1, C(O) and the amino group of Nle 2; Nle 2; D-Ala 4; D-Phe 6; disulfide Cys 3-Cys 9 (cyclo); C-terminal amide
In assay [4], B3 came in with a Ki of 33.7 nM.

B4: Hydantoin(C(O)-(Aib-Nle))-cyclo(Cys-D-Ala-His-D-Phe-Arg-Trp-Cys)-NH2 (peptide)
peptide: CXHXRWC
modifications: hydantoin ring from Aib 1, C(O) and the amino group of Nle 2; Aib 1; Nle 2; D-Ala 4; D-Phe 6; disulfide Cys 3-Cys 9 (cyclo); C-terminal amide
Take B4: the Ki in assay [1] was 8.4 nM; in assay [2], 73.6 nM; in assay [3], 2120 nM; in assay [4], 17.7 nM.

B5: cyclo[Hydantoin(C(O)-(Leu-Cys))-D-Ala-His-D-Phe-Arg-Trp-Cys]-NH2 (peptide)
peptide: XHXRWC
modifications: not fully specified; hydantoin ring from Leu 1, C(O) and the amino group of Cys 2; D-Ala 3; D-Phe 5; disulfide Cys 2-Cys 8 (cyclo); C-terminal amide
On to B5, for which the Ki in assay [1] is 27.9 nM; in assay [2] it was 1550 nM; in assay [4], 47.4 nM.

B6: Hydantoin(C(O)-(Aib-Gly))-cyclo(Cys-D-Ala-His-D-Phe-Arg-Trp-Cys)-NH2 (peptide)
peptide: CXHXRWC
modifications: hydantoin ring from Aib 1, C(O) and the amino group of Gly 2; Aib 1; D-Ala 4; D-Phe 6; disulfide Cys 3-Cys 9 (cyclo); C-terminal amide
Turning to B6, the Ki in assay [1] came to 13.7 nM; in assay [2], 290 nM; in assay [3], 133 nM; in assay [4], 36.8 nM.
